Source: patent US20260384438A1, “PYRROLOPYRIMIDINE CARBOXAMIDES” (published 2026)

Chains of the proteins cited; added tags and fusions are not shown. Residues count along the entry.
UniProt O94921, whole entry: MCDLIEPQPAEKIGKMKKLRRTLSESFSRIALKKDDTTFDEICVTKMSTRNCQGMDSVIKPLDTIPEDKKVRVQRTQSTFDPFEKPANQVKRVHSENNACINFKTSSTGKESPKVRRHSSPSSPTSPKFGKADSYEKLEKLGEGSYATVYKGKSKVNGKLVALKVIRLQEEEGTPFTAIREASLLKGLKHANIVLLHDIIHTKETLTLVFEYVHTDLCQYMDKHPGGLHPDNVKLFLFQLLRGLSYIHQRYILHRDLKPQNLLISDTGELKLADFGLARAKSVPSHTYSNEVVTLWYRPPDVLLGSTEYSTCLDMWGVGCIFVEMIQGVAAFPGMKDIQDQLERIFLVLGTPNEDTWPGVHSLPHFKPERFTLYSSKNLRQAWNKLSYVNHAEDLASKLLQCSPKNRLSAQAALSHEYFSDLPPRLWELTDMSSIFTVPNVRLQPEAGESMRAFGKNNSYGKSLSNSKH
UniProt Q00535, whole entry: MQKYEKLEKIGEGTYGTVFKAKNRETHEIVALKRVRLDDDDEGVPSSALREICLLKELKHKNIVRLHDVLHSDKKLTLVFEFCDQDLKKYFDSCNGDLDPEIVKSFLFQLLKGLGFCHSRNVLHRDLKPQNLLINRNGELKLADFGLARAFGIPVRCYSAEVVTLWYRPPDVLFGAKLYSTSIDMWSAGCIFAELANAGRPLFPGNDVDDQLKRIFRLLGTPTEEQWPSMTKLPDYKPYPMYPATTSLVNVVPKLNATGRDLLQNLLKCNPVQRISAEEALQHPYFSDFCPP
UniProt P50750, whole entry: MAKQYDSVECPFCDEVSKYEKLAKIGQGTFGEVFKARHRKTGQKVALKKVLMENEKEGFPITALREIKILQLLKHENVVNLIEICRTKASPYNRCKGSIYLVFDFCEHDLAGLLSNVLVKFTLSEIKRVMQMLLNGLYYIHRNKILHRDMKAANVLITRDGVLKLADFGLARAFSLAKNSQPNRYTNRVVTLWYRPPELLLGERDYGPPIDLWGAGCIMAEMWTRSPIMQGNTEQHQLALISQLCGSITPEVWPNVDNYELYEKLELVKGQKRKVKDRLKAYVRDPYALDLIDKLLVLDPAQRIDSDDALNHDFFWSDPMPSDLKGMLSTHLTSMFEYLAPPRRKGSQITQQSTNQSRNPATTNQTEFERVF
UniProt Q09013, whole entry: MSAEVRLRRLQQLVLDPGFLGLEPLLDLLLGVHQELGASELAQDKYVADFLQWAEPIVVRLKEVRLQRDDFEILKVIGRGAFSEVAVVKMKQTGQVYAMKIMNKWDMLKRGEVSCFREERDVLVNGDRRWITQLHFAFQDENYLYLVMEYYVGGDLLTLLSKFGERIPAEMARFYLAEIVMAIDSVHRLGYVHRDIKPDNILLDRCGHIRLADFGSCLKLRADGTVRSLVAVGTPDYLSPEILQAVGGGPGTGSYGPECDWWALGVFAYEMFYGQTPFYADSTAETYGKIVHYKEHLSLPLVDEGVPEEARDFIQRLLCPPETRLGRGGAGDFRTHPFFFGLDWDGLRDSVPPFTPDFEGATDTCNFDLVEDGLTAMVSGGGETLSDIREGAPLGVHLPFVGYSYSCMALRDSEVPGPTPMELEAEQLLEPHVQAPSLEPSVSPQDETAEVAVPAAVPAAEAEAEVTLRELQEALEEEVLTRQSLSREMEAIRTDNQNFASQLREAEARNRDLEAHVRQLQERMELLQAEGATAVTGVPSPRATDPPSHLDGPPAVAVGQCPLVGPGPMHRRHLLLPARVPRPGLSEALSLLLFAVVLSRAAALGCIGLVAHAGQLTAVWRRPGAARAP
UniProt O75460, 19-977 limits assumed: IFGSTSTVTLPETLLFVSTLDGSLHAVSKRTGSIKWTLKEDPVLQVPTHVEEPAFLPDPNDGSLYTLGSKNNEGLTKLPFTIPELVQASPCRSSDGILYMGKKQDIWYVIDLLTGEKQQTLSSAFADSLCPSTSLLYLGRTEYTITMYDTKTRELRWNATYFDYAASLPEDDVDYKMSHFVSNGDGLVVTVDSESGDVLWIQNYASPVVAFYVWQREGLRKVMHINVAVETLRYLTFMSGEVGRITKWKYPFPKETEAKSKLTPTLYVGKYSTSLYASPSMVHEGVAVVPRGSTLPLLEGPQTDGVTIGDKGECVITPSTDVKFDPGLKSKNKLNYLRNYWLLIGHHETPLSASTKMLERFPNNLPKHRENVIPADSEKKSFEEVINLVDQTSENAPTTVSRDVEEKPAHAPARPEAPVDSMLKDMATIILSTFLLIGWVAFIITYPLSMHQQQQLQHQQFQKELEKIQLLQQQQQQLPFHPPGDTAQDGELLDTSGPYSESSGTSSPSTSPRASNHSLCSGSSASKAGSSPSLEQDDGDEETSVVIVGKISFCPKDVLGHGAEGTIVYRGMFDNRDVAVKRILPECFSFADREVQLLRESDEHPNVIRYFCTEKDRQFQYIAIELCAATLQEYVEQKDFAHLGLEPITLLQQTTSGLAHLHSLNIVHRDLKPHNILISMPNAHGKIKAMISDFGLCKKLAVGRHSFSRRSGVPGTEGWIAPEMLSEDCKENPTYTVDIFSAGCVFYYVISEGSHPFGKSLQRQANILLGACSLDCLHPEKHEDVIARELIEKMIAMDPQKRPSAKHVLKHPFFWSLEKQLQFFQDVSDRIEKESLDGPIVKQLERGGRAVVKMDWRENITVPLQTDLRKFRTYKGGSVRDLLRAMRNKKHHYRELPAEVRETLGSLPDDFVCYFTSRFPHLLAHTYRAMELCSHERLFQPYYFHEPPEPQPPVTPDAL
UniProt Q15835, 1-560 limits assumed: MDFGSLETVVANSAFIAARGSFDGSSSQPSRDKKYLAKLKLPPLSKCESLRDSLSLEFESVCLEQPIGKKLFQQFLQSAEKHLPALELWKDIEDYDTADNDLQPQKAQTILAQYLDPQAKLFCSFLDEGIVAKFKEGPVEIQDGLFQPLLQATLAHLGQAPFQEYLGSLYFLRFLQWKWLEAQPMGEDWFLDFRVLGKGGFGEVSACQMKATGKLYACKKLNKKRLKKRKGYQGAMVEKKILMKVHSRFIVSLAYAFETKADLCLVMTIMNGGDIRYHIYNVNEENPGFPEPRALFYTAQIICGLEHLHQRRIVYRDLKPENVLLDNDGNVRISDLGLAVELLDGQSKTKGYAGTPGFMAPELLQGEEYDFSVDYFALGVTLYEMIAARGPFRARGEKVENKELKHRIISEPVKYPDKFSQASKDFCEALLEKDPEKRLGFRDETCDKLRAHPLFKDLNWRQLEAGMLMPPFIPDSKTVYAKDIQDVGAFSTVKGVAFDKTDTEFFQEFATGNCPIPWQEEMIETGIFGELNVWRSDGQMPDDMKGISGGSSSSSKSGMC
UniProt P36507, whole entry: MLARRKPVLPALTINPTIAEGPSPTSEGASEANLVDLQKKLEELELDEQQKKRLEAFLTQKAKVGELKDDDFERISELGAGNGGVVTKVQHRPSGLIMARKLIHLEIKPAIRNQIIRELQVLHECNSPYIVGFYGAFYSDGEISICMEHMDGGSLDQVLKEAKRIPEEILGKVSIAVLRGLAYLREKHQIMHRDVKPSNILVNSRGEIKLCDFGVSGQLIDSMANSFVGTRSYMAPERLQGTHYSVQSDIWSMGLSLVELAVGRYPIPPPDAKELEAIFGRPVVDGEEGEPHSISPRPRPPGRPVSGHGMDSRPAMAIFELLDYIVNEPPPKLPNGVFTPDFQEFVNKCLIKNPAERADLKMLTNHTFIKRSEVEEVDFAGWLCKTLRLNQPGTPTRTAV
UniProt Q86SG6, whole entry: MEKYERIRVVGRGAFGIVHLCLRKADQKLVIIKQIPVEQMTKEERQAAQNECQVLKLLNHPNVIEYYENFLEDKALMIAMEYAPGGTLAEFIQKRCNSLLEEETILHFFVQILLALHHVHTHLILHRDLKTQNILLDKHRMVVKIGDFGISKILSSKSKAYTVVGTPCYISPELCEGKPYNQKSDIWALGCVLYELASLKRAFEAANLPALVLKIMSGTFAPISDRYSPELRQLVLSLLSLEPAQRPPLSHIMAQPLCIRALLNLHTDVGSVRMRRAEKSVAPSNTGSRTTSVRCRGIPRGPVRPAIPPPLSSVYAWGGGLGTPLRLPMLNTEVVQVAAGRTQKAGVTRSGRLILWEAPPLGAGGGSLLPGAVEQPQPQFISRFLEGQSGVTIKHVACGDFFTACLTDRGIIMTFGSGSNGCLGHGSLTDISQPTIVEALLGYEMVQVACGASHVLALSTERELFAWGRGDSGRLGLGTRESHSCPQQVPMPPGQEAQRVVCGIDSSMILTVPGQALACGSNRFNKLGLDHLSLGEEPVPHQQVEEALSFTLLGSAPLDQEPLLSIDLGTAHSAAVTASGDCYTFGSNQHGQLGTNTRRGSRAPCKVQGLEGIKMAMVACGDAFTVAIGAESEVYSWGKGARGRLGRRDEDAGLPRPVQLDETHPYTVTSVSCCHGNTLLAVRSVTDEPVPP
UniProt P00533, 25-1210 limits assumed: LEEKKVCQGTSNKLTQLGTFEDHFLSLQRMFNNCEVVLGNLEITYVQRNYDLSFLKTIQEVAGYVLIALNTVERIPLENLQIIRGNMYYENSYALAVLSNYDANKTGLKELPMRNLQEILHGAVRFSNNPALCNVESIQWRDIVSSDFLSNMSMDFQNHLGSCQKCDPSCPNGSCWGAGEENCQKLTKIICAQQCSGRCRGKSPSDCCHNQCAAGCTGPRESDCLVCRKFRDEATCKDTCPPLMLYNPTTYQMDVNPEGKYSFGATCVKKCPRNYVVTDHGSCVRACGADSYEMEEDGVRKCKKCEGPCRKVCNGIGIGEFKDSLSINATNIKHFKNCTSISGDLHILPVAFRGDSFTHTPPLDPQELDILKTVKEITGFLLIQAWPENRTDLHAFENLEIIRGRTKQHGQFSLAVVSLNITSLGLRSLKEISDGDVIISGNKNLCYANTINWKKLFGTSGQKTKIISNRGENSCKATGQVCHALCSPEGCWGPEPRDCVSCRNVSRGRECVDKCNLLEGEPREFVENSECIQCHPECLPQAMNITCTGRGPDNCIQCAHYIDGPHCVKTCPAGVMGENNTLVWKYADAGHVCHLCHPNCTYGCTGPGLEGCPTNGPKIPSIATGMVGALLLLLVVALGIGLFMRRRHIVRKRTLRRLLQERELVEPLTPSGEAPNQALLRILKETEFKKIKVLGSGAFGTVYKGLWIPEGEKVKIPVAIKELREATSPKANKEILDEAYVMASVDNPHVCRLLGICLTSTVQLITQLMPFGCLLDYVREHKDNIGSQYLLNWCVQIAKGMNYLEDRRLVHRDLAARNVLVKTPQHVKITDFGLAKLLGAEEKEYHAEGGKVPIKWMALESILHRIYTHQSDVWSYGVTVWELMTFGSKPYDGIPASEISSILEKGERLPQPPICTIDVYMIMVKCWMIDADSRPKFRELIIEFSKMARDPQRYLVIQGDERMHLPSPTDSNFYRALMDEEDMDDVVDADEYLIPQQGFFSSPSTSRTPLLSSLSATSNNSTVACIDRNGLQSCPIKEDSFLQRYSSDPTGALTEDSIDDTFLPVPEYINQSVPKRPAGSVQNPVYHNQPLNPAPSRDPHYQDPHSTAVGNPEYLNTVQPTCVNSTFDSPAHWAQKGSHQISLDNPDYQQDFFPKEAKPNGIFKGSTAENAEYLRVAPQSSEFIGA
UniProt P29323, 19-1055 limits assumed: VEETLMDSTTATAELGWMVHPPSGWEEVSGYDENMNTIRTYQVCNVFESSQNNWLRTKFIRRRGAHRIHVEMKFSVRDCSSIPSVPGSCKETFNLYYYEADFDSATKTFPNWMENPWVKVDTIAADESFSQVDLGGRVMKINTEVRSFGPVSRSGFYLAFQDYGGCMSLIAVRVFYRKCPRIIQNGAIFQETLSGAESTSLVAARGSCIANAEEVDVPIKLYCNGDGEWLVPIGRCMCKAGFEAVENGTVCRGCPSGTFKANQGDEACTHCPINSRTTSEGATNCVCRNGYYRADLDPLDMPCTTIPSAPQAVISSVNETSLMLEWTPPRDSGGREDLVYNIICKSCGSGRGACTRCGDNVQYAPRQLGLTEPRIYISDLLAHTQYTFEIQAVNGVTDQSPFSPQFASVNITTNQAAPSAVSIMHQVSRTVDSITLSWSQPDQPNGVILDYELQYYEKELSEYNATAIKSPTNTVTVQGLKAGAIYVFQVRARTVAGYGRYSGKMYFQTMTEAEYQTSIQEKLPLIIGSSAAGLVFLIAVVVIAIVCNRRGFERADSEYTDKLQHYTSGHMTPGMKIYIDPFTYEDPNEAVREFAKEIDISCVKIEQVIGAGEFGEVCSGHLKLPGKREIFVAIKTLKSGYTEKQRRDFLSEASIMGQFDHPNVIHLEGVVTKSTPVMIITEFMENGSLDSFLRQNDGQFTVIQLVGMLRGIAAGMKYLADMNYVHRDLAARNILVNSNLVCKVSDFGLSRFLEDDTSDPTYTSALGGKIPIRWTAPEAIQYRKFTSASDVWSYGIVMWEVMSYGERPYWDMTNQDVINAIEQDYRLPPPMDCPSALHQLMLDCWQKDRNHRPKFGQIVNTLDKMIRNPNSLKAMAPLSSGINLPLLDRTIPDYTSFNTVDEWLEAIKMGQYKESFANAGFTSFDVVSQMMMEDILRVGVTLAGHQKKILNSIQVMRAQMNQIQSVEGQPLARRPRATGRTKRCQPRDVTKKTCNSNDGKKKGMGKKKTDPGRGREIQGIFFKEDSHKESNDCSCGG

How the values were obtained:
[1] = biological target: ACVR1 (ALK2) (Homo sapiens, UniProt Q04771); test: Kinase profiling, Lantha
[2] = biological target: AMPK (A2/B2/G1) (Homo sapiens, UniProt P54646); test: Kinase profiling, Lantha; settings: 1 μM, KmATP
[3] = biological target: AMPK (A2/B2/G2) (Homo sapiens, UniProt P54646); test: Kinase profiling, Lantha; settings: 1 μM, KmATP
[4] = test system: CDK11 Cyclin C; test: Kinase profiling, Lantha; settings: 1 μM, KmATP
[5] = biological target: CDK14(PFTK1)/cyclinY (Homo sapiens, UniProt O94921); test: Kinase profiling, Lantha; settings: 1 μM, KmATP
[6] = biological target: CDK2/cyclin A1 (Homo sapiens, UniProt P24941); test: Kinase profiling, Lantha; settings: 1 μM, KmATP
[7] = biological target: CDK5 (Inactive) (Homo sapiens, UniProt Q00535); test: Kinase profiling, Lantha; settings: 1 μM, KmATP
[8] = biological target: CDK9 (Inactive) (Homo sapiens, UniProt P50750); test: Kinase profiling, Lantha; settings: 1 μM, KmATP
[9] = biological target: DAPK2 (Homo sapiens, UniProt Q9UIK4); test: Kinase profiling, Lantha; settings: 1 μM, KmATP
[10] = biological target: DDR1 (Homo sapiens, UniProt Q08345); test: Kinase profiling, Lantha; settings: 1 μM, KmATP
[11] = biological target: DMPK (Homo sapiens, UniProt Q09013); test: Kinase profiling, Lantha; settings: 1 μM, KmATP
[12] = biological target: EPHA6 (Homo sapiens, UniProt Q9UF33); test: Kinase profiling, Lantha; settings: 1 μM, KmATP
[13] = biological target: ERN1 (Homo sapiens, UniProt O75460); test: Kinase profiling, Lantha; settings: 1 μM, KmATP
[14] = biological target: ERN2 (Homo sapiens, UniProt Q76MJ5); test: Kinase profiling, Lantha; settings: 1 μM, KmATP
[15] = biological target: FYN A (Homo sapiens, UniProt P06241); test: Kinase profiling, Lantha
[16] = biological target: GRK1 (Homo sapiens, UniProt Q15835); test: Kinase profiling, Lantha; settings: 1 μM, KmATP
[17] = biological target: LATS2 (Homo sapiens, UniProt Q9NRM7); test: Kinase profiling, Lantha; settings: 1 μM, KmATP
[18] = biological target: MAP2K2 (MEK2) (Homo sapiens, UniProt P36507); test: Kinase profiling, Lantha; settings: 1 μM, KmATP
[19] = biological target: MAP3K5 (ASK1) (Homo sapiens, UniProt Q99683); test: Kinase profiling, Lantha; settings: 1 μM, KmATP
[20] = biological target: MAP4K1 (HPK1) (Homo sapiens, UniProt Q92918); test: Kinase profiling, Lantha; settings: 1 μM, KmATP
[21] = biological target: MAPK15 (ERK7) (Homo sapiens, UniProt Q8TD08); test: Kinase profiling, Lantha; settings: 1 μM, KmATP
[22] = biological target: NEK8 (Homo sapiens, UniProt Q86SG6); test: Kinase profiling, Lantha; settings: 1 μM, KmATP
[23] = biological target: PRKACB (Homo sapiens, UniProt P22694); test: Kinase profiling, Lantha; settings: 1 μM, KmATP
[24] = biological target: SIK3 (Homo sapiens, UniProt Q9Y2K2); test: Kinase profiling, Lantha; settings: 1 μM, KmATP
[25] = biological target: STK32C (YANK3) (Homo sapiens, UniProt Q86UX6); test: Kinase profiling, Lantha; settings: 1 μM, KmATP
[26] = biological target: STK38L (NDR2) (Homo sapiens, UniProt Q9Y2H1); test: Kinase profiling, Lantha; settings: 1 μM, KmATP
[27] = biological target: TAOK3 (JIK) (Homo sapiens, UniProt Q9H2K8); test: Kinase profiling, Lantha; settings: 1 μM, KmATP
[28] = biological target: TESK1 (Homo sapiens, UniProt Q15569); test: Kinase profiling, Lantha; settings: 1 μM, KmATP
[29] = biological target: TTK (Homo sapiens, UniProt P33981); test: Kinase profiling, Lantha; settings: 1 μM, KmATP
[30] = biological target: ULK2 (Homo sapiens, UniProt Q8IYT8); test: Kinase profiling, Lantha; settings: 1 μM, KmATP
[31] = biological target: WNK1 (Homo sapiens, UniProt Q9H4A3); test: Kinase profiling, Lantha; settings: 1 μM, KmATP
[32] = biological target: bRAF (Homo sapiens, UniProt P15056); test: Kinase profiling, Lantha
[33] = biological target: AurKA (Homo sapiens, UniProt O14965); test: NanoBRET kinase panel (CELLinib); settings: whole-cell NanoBRET
[34] = biological target: EGFR (Homo sapiens, UniProt P00533); test: NanoBRET kinase panel (CELLinib); settings: whole-cell NanoBRET
[35] = biological target: EPHA4 (Homo sapiens, UniProt P54764); test: NanoBRET kinase panel (CELLinib); settings: whole-cell NanoBRET
[36] = biological target: EPHB2 (Homo sapiens, UniProt P29323); test: NanoBRET kinase panel (CELLinib); settings: whole-cell NanoBRET
[37] = biological target: FGFR2 (Homo sapiens, UniProt P21802); test: NanoBRET kinase panel (CELLinib); settings: whole-cell NanoBRET
[38] = biological target: GSK3B (Homo sapiens, UniProt P49841); test: NanoBRET kinase panel (CELLinib); settings: whole-cell NanoBRET
[39] = biological target: LCK (Homo sapiens, UniProt P06239); test: NanoBRET kinase panel (CELLinib); settings: whole-cell NanoBRET
[40] = biological target: MAP3K4 (Homo sapiens, UniProt Q9Y6R4); test: NanoBRET kinase panel (CELLinib); settings: whole-cell NanoBRET

For `Cc1nc(C(F)(F)F)c2c(C(N)=O)c(N)n(-c3c(C)ccc(O)c3C)c2n1` (single isomer, unassigned), the “MEAN INHIBITION” value ([1]; 1 μM, KmATP) was 80.237%, the IC50 ([1]; 10-point CR, top 10 μM) was 0.172 µM and the “MEAN INHIBITION” value [2] was −0.942%. For the same molecule, the “MEAN INHIBITION” value [3] was 1.418%, the “MEAN INHIBITION” value [4] was 35.689% and the “MEAN INHIBITION” value [5] was 12.615%. For the same molecule, the “MEAN INHIBITION” value [6] was 11.556%, the “MEAN INHIBITION” value [7] was −5.417% and the “MEAN INHIBITION” value [8] was −2.367%. For the same molecule, the “MEAN INHIBITION” value [9] was 6.764%, the “MEAN INHIBITION” value [10] was 7.439% and the “MEAN INHIBITION” value [11] was 3.222%. For the same molecule, the “MEAN INHIBITION” value [12] was −0.902%, the “MEAN INHIBITION” value [13] was 2.657% and the “MEAN INHIBITION” value [14] was 23.587%. The “MEAN INHIBITION” value ([15]; 1 μM, KmATP) was 12.744%, the IC50 ([15]; 10-point CR, top 10 μM) was 2.41 µM and the “MEAN INHIBITION” value [16] was 3.488%. For the same molecule, the “MEAN INHIBITION” value [17] was 11.623%, the “MEAN INHIBITION” value [18] was −0.931% and the “MEAN INHIBITION” value [19] was −2.537%. For the same molecule, the “MEAN INHIBITION” value [20] was −0.865%, the “MEAN INHIBITION” value [21] was 0.548% and the “MEAN INHIBITION” value [22] was 3.787%. The “MEAN INHIBITION” value [23] was 3.852%, the “MEAN INHIBITION” value [24] was 15.273% and the “MEAN INHIBITION” value [25] was 0.307%. For the same molecule, the “MEAN INHIBITION” value [26] was 12.492%, the “MEAN INHIBITION” value [27] was 1.585% and the “MEAN INHIBITION” value [28] was −10.686%. The “MEAN INHIBITION” value [29] was −3.632%, the “MEAN INHIBITION” value [30] was 0.726% and the “MEAN INHIBITION” value [31] was 1.189%. The “MEAN INHIBITION” value ([32]; 1 μM, KmATP) was 78.905%, the IC50 ([32]; 10-point CR, top 10 μM) was 0.138 µM and the IC50 [33] was > 50 µM. The IC50 [34] was > 50 µM, the IC50 [35] was 16.1 µM and the IC50 [36] was 10.9 µM. The IC50 [37] was > 50 µM, the IC50 [38] was 21.6 µM and the IC50 [39] was > 50 µM. The IC50 [40] was > 50 µM.
